The values that follow are results of earlier work, collected in article PMC5916808 (Journal of medicinal chemistry, 2017).

Chains of the proteins cited; added tags and fusions are not shown. Residues count along the entry.
UniProt Q62645, 28-1323: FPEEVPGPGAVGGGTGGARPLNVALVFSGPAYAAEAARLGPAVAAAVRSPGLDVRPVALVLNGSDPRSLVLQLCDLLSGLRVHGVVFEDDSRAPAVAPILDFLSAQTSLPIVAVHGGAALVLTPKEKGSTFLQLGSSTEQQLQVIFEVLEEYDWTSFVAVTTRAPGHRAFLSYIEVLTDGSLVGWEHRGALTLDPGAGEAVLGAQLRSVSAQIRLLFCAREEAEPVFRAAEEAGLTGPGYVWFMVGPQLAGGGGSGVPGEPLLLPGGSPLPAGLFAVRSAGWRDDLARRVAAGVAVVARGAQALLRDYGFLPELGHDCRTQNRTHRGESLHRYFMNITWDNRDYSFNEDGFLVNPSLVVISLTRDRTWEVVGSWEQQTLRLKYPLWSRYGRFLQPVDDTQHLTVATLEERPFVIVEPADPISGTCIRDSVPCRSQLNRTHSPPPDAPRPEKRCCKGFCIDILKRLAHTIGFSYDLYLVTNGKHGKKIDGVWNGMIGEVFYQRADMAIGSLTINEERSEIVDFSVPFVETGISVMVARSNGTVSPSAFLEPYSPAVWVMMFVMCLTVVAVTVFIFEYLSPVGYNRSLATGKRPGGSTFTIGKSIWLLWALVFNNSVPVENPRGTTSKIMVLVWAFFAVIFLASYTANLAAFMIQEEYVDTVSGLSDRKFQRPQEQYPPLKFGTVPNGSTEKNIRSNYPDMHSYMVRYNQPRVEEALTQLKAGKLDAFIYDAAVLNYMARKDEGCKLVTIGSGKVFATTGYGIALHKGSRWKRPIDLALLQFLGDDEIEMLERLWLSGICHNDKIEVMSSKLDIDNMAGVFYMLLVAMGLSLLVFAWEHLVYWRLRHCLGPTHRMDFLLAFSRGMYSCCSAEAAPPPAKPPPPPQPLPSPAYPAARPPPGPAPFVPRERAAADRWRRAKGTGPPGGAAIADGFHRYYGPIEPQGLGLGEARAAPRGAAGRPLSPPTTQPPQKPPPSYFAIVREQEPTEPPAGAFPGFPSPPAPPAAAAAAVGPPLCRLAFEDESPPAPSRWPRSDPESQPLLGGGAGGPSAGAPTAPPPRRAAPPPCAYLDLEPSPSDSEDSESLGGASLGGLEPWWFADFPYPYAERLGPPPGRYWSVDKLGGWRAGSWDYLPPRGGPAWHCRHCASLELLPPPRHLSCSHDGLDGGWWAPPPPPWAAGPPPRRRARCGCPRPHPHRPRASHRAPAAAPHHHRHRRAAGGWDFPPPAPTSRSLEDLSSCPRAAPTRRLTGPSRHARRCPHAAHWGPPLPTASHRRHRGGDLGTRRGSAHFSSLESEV
UniProt Q00961, 20-1237: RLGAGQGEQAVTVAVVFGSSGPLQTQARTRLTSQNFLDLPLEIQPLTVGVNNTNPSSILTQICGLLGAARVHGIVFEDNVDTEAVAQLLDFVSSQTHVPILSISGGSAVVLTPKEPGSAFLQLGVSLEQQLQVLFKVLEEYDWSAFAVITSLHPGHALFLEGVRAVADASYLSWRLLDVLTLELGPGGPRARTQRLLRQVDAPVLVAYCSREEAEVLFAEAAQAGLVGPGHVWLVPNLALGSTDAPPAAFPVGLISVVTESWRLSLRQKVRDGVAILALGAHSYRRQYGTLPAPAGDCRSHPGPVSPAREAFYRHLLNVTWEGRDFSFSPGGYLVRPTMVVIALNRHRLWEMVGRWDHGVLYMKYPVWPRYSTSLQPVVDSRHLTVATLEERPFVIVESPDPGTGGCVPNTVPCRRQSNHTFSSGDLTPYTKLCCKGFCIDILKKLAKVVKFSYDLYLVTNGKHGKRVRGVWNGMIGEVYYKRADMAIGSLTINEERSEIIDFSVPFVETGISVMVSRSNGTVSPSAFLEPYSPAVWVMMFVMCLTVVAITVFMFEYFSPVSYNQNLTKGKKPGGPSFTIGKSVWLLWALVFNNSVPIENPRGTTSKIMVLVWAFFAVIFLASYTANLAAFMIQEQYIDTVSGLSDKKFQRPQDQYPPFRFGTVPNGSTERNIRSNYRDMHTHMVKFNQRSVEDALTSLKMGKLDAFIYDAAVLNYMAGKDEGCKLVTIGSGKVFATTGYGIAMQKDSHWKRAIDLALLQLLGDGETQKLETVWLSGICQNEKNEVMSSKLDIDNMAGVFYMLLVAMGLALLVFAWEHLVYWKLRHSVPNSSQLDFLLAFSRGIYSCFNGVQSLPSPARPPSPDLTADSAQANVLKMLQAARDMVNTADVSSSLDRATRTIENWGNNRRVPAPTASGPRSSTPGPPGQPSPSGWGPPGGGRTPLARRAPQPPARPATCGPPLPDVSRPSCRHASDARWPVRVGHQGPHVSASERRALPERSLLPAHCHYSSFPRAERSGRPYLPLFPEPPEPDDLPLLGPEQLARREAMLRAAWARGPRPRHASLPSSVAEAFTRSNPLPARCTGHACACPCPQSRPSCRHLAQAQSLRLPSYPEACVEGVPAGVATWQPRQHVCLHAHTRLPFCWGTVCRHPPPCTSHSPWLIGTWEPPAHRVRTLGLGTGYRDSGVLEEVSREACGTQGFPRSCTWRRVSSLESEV

One may read the EC50 as the concentration that produces a half-maximal response.

The target in data set [1] is GluN1/GluN2D NMDA receptors (Rattus norvegicus, UniProt Q62645). The note with it: read-out: EC50 GluN2D; previously published data; cited from earlier work.
Data set [2] has as its target GluN1/GluN2C NMDA receptors (Rattus norvegicus, UniProt Q00961). The note with it: read-out: EC50 GluN2C; previously published data; cited from earlier work.

As for `COc1ccc(OCC2c3ccc(OC)cc3CCN2C(=O)c2cccc(Cl)c2)cc1` (centres unmarked) [Compound 86], the EC50 is 1000 nM in data set [1] and 1300 nM in data set [2].
